According to patent US20220381657A1, “METHOD FOR PREPARING BIOLOGICAL MATERIAL HAVING EXCELLENT LIGHT-TRANSMITTING PROPERTY” (RIKEN, priority 2016, published 2022):

Test system: fixed brain tissue suspension
Experiment: 1st delipidation assay: solubilization of fixed brain tissue suspension, turbidity at 600 nm
Set-up: species or system mice
Details: Table 1; 10 wt % chemical, fixed mouse brain suspension, 37° C. overnight; PBS = 1.000

Substance	1st delipidation assay Relative OD600
Decyldimethyl(3- sulfopropyl)ammonium [#0651]	0.244
Dodecyldimethyl(3- sulfopropyl)ammonium [#0661]	0.258
